From PubChem BioAssay
A selection: hits, their analogues and other compounds. The true share with any hit is near 2.3%.
Nrf2 inh: Nrf2 pathway inhibition; A549 ARE-Fluc reporter, luciferase luminescence, 18-24 h; 2.1% of 360,000 active; Potency, µM (titrated, usually from 46 µM), without a hit: at the highest dose activity change, negative = inhibition, usual class: inhibitors; further: potency means the concentration at half of the fitted maximal effect; on the % scale 0 is the no-effect control and ±100 the full control effect; nearly all actives have a fitted effect of over 60% in size
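Concentration-response testing used A549 ARE_Fluc cells at 5000 cells/well. Following an 18-24 h compound incubation, viability was read by fluorescence (Ex 405/Em 525) and luciferase output by luminescence.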
Nrf2 activator: activators of Nrf2 (ARE) signaling | AREc32 ARE-luciferase reporter (MCF7-derived line), luminescence, 24 h | Potency, µM (top dose mostly 46.1 µM), for the others: at the top dose activation, most hits filed as activators | 0.31% of 410,000 active; further: potency means the concentration at half of the fitted maximal effect; % of control where 0% means no effect; nearly all actives have a fitted effect of over 65% in size
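ARE-driven firefly luciferase activity in AREc32 cells measured after a 24 hr compound exposure at 37 deg C, using Steady-Glo reagent and a 30 min room-temperature hold.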
A549 tox-1: kills or reduces viability of A549 cells in Nrf2 counter-screen; A549 ARE-Fluc cells, CellTiter-Fluor viability, 18-24 h; Potency, µM (highest dose often 46 µM), for inactives: top-dose activity change, negative = cytotoxicity, most hits filed as inhibitors; 0.16% of 390,000 active; AID 504648; further: potency means the concentration at half of the fitted maximal effect; on the % scale 0 is the no-effect control and ±100 the full control effect
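A549 ARE-Fluc cells in 5% FBS OPTI-MEM, 5000 cells/well, rested 2 h then exposed to compounds in concentration-response for 18-24 h at 37 °C. Viability by CellTiter-Fluor fluorescence (Ex 405/Em 525) after 30 min; luciferase luminescence (BugLite, 15 min, RT) read afterwards.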
Mito fusion yeast: blocks mitochondrial division or promotes mitochondrial fusion; Potency, µM (top dose mostly 46.1 µM), inactives show at the top dose growth rescue (activation), actives largely listed as activators; AID 485298; S. cerevisiae fusion-defective mutant growth rescue, CellTiterGlo 48 h; 0.23% of 320,000 active; further: potency means the concentration at half of the fitted maximal effect; % of control where 0% means no effect; nearly all actives have a fitted effect of over 45% in size
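Compounds are tested for their ability to restore growth of mitochondrial fusion-defective yeast strains at non-permissive 37C in YPEG medium over 48 hours. Viability is quantified by luciferase luminescence.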
miR-21 reporter: raises the signal of a miR-21 reporter; 340,000 tested, under 10 active; HeLa miR-21 FLuc reporter, luciferase, 48 h; Potency, µM (highest dose often 38.3 µM), without a hit: top-dose reporter change, positive = more light; active = well fitted rising curve with a large enough effect; inconclusive = small, poorly fitted or top-dose-only effect; inactive = no such curve, though single readings can be large or run the other way;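 also: % of control where 0% means no effect; miR-21 action dims this reporter so a rising signal means less miR-21 action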
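HeLa cells stably expressing CMV-driven firefly luciferase with a downstream miR-21 binding sequence, endogenously expressing miR-21, were treated with titrations (up to about 40uM final) for 48 hours at 37 degree Celsius. Luciferase luminescence was read after lysis.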
FLuc counter 3: blocks purified firefly luciferase in Nrf2 counterscreen; purified firefly luciferase, luminescence inhibition; Potency, µM (doses to about 57.5 µM), for inactives: at the highest dose activity change, negative = inhibition, hits mostly inhibitors; 4% of 1,400 active; AID 720522; shares compounds with Nrf2 inh; further: potency means the concentration at half of the fitted maximal effect; on the % scale 0 is the no-effect control and ±100 the full control effect; nearly all actives have a fitted effect of over 65% in size
A549 tox-2: toxic to A549 ARE-Fluc cells in Nrf2 counterscreen | shares compounds with Nrf2 inh | A549 ARE-Fluc cells, cytotoxicity counterscreen | Potency, µM (titrated, usually from 46.1 µM), for inactives: at the top dose activity change, negative = cytotoxicity, hits mostly inhibitors | 2% of 1,400 active;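 further: potency means the concentration at half of the fitted maximal effect; cells exposed to compounds for 18 to 24 hours; on the % scale 0 is the no-effect control and ±100 the full control effect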
ARE-Fluc inh: confirmation of Nrf2 inhibitors in A549 ARE reporter cells; Potency, µM (highest dose often 46.1 µM), for inactives: top-dose activity change, negative = inhibition, usual class: inhibitors; A549 ARE-firefly luciferase reporter, luminescence; 74% of 1,400 active; shares compounds with Nrf2 inh; further: potency means the concentration at half of the fitted maximal effect; on the % scale 0 is the no-effect control and ±100 the full control effect; nearly all actives have a fitted effect of over 65% in size
Starred values were filed as active, the others as inactive. The call rests on the fitted dose curve; in most records, active means well fitted curve in the direction sought with a large enough effect; inconclusive means small, poorly fitted or top-dose-only effect, or another doubt; inactive means no such curve, though single readings can be large; an effect the other way counts as inactive or inconclusive.

What do the screens show for `c1ccc2c(c1)OCC(CNc1ncnc3sccc13)O2` (stereo unspecified)?
Nrf2 inh: 1.5µM*; Nrf2 activator: 6%; A549 tox-1: -5%; Mito fusion yeast: 8%; miR-21 reporter: 11%; FLuc counter 3: -23%; A549 tox-2: -4%; ARE-Fluc inh: 1.2µM*

Results for COc1ccccc1Oc1ncnc2sccc12 ?
Nrf2 inh: -13%; Nrf2 activator: 4%; A549 tox-1: -2%; Mito fusion yeast: -6%; miR-21 reporter: -11%

How did COC(=O)c1c(NC(=O)c2nc(SCc3ccc(F)cc3)ncc2Cl)sc2c1CCCC2 do in these assays?
Nrf2 inh: 12%; Nrf2 activator: 0%; A549 tox-1: -1%; miR-21 reporter: 5%

What do the screens show for `Cc1ccc2occ(-c3cc(-c4ccc(Cl)cc4)nc4c3COc3ccccc3-4)c(=O)c2c1`?
Nrf2 inh: inconclusive; Nrf2 activator: 3%; A549 tox-1: 1%; miR-21 reporter: -5%

How did COc1ccc(CCNc2ncnc3c2c(C)c(C)n3CCO)cc1OC do in these assays?
Nrf2 inh: inconclusive; Nrf2 activator: 5%; A549 tox-1: 1%; Mito fusion yeast: -6%; miR-21 reporter: -9%

How did CN(C)c1ccc(CNc2ncnc3sccc23)cc1 do in these assays?
Nrf2 inh: 4.6µM*; Nrf2 activator: 7%; A549 tox-1: -5%; Mito fusion yeast: -47%; miR-21 reporter: 21%; FLuc counter 3: -3%; A549 tox-2: -27%; ARE-Fluc inh: 12µM*

How did COc1ccc(CCNc2ncnc3c2oc2ccccc23)cc1OC do in these assays?
Nrf2 inh: 5.2µM*; Nrf2 activator: 3%; A549 tox-1: -8%; Mito fusion yeast: 3%; miR-21 reporter: inconclusive; FLuc counter 3: -19%; A549 tox-2: -13%; ARE-Fluc inh: 4.1µM*

What do the screens show for `NS(=O)(=O)c1ccc(CNc2ncnc3sccc23)cc1`?
Nrf2 inh: -12%; Nrf2 activator: 0%; A549 tox-1: -3%; Mito fusion yeast: 4%; miR-21 reporter: 0%

How did COc1ccc(CNC(=O)c2cccn2-c2nnc(N3CCCCC3)s2)c(OC)c1 do in these assays?
Nrf2 inh: inconclusive; Nrf2 activator: 6%; A549 tox-1: -2%; miR-21 reporter: 12%

How did CCOC(=O)N1CCN(C(=O)c2ccc3c(=O)n(Cc4ccc(Cl)cc4)c(=S)[nH]c3c2)CC1 do in these assays?
Nrf2 inh: inconclusive; Nrf2 activator: 1%; A549 tox-1: -8%; Mito fusion yeast: -18%; miR-21 reporter: -2%

How did CCOC(=O)N1CCN(C(=O)c2ccc(Cn3c(=S)[nH]c4ccc(Br)cc4c3=O)cc2)CC1 do in these assays?
Nrf2 inh: 4.1µM*; Nrf2 activator: 0%; A549 tox-1: inconclusive; Mito fusion yeast: -4%; miR-21 reporter: 2%; FLuc counter 3: -18%; A549 tox-2: inconclusive; ARE-Fluc inh: 8.2µM*

How did COc1ccc2c(c1)c(C)cc[n+]2Cc1ccccc1 do in these assays?
Nrf2 inh: 6.5µM*; Nrf2 activator: -1%; A549 tox-1: -18%; Mito fusion yeast: 1%; miR-21 reporter: 28%; FLuc counter 3: -1%; A549 tox-2: 0%; ARE-Fluc inh: 10µM*

Results for Cc1nc2c(-c3ccccc3)c(C)[nH]n2c(=O)c1Cc1ccc(C(C)C)cc1 ?
Nrf2 inh: 4.6µM*; Nrf2 activator: -1%; A549 tox-1: inconclusive; miR-21 reporter: inconclusive; FLuc counter 3: 3%; A549 tox-2: -21%; ARE-Fluc inh: 5.8µM*

Results for Cc1nc2c(-c3ccccc3)c(C)[nH]n2c(=O)c1Cc1ccc(Br)cc1 ?
Nrf2 inh: 8.2µM*; Nrf2 activator: -1%; A549 tox-1: inconclusive; miR-21 reporter: inconclusive; FLuc counter 3: -2%; A549 tox-2: inconclusive; ARE-Fluc inh: 3.3µM*

How did Cc1ccc(Cc2c(C)nc3c(-c4ccccc4)c(C)[nH]n3c2=O)cc1 do in these assays?
Nrf2 inh: 1%; Nrf2 activator: 0%; A549 tox-1: -10%; miR-21 reporter: 0%

The closing three records of the part above open the next one:
Results for Cc1nc2c(-c3ccccc3)c(C)[nH]n2c(=O)c1Cc1ccc(C(C)C)cc1 ?
Nrf2 inh: 4.6µM*; Nrf2 activator: -1%; A549 tox-1: inconclusive; miR-21 reporter: inconclusive; FLuc counter 3: 3%; A549 tox-2: -21%; ARE-Fluc inh: 5.8µM*

Results for Cc1nc2c(-c3ccccc3)c(C)[nH]n2c(=O)c1Cc1ccc(Br)cc1 ?
Nrf2 inh: 8.2µM*; Nrf2 activator: -1%; A549 tox-1: inconclusive; miR-21 reporter: inconclusive; FLuc counter 3: -2%; A549 tox-2: inconclusive; ARE-Fluc inh: 3.3µM*

How did Cc1ccc(Cc2c(C)nc3c(-c4ccccc4)c(C)[nH]n3c2=O)cc1 do in these assays?
Nrf2 inh: 1%; Nrf2 activator: 0%; A549 tox-1: -10%; miR-21 reporter: 0%

What do the screens show for `COc1ccc(NC(=O)CCCc2nnc3n(CCC(C)C)c(=O)c4sccc4n23)cc1Cl`?
Nrf2 inh: -30%; Nrf2 activator: 4%; A549 tox-1: -11%; miR-21 reporter: -1%

Results for O=C(N/N=C(\Cc1ncc[nH]1)c1ccccc1)c1ccccc1 ?
Mito fusion yeast: 9%; miR-21 reporter: -16%

How did O=C(N/N=C(\Cc1ncc[nH]1)c1ccccc1)c1cccnc1 do in these assays?
Nrf2 inh: 2.3µM*; Nrf2 activator: 2%; A549 tox-1: -16%; Mito fusion yeast: -7%; miR-21 reporter: 19%; FLuc counter 3: -2%; A549 tox-2: -11%; ARE-Fluc inh: 8.2µM*

How did O=C(N/N=C(\c1ccccc1)c1cccnc1)c1cccc(F)c1 do in these assays?
Nrf2 inh: 7.3µM*; Nrf2 activator: inconclusive; A549 tox-1: inconclusive; Mito fusion yeast: -4%; miR-21 reporter: 10%; FLuc counter 3: -20%; A549 tox-2: inconclusive; ARE-Fluc inh: 1.8µM*

How did Cc1ccc(NC(=O)C(CC(C)C)N2Cc3ccccc3C2=O)cc1F (stereo unspecified) do in these assays?
Nrf2 inh: inconclusive; Nrf2 activator: 0%; A549 tox-1: -6%; miR-21 reporter: -1%

What do the screens show for `Cc1ccc(-n2ncc(C(=O)NCCN3CCc4ccccc4C3)c2C2CCN(C(=O)OC(C)(C)C)CC2)cc1`?
Nrf2 inh: inconclusive; Nrf2 activator: -4%; A549 tox-1: inconclusive; miR-21 reporter: inconclusive

What do the screens show for `C[C@H]1CCC/C=C/[C@@H]2C[C@H](O)C[C@H]2[C@H](O)[C@H](S(=O)c2ccc(O)cc2)CC(=O)O1` (stereo partly specified)?
Nrf2 inh: 0.26µM*; Nrf2 activator: 0%; A549 tox-1: inconclusive; FLuc counter 3: 1%; A549 tox-2: inconclusive; ARE-Fluc inh: 0.52µM*

What do the screens show for `CC1(C)N=C(N)N=C(N)N1CCCCc1ccccc1`?
Nrf2 inh: 0.82µM*; Nrf2 activator: -1%; A549 tox-1: -3%; FLuc counter 3: 3%; A549 tox-2: -5%; ARE-Fluc inh: 1.2µM*
